Target: human Syk protein (Homo sapiens (Human), UniProt P43405)
Experiment: Syk kinase inhibition test
Type: biochemical
Conditions: Table 95; read-out: SYK inhibitory activity IC50
Experimental: Finally, phosphorylated peptides and non-phosphorylated peptides were separated therebetween using LabChip™ 3000 system (Caliper Life Sciences, Inc., excitation wavelength: 488 nm, detection wavelength: 530 nm). Their respective amounts were measured, and the rate of phosphorylation reaction was then determined from the ratio between the amounts. The concentration at which the compound can inhibit 50% phosphorylation reaction is defined as an IC50 value (μM).
Also, known 1,2,4-triazine-6-carboxamide derivatives A, B, and C (WO2000/075113 (A: compound No. 121 and B: compound No. 154) and WO2000/076980 (C: compound No. 39)) were synthesized as control compounds. Their IC50 values (μM) were calculated in the same way as above and then compared with that of the compound of the present invention.

Structure (SMILES)	IC50
[2H]C([2H])([2H])C([2H])([2H])n1ccc2c(Nc3nc(N[C@@H]4CCCC[C@@H]4N)nnc3C(N)=O)cccc21 [Example 9, 3-((1R,2S)-2-aminocyclohexylamino)-5-(1-(ethyl-d5)-1H-indol-4-ylamino)-1,2,4-triazine-6-carboxamide]	0.9 nM
CCn1ccc2c(Nc3nc(N[C@@H]4CCCC[C@@H]4N)nnc3C(N)=O)cccc21 [Example 17, 3-((1R,2S)-2-aminocyclohexylamino)-5-(1-ethyl-1H-indol-4-ylamino)-1,2,4-triazine-6-carboxamide]	0.21 nM

Source: patent US9145414B2, “1,2,4-triazine-6-carboxamide derivative” (TAIHO PHARMACEUTICAL CO., LTD., priority 2011, dated 2015)
